In assay [1] the target is Rabbit IgG fraction, code X0903 (DAKO A/S) (rabbit). Nature of the assay: affinity chromatography on DAP held on biotin-agarose, 0.3 mL of 12 uM IgG injected, A280.
Assay [2] shares this target. Nature of the assay: affinity chromatography on DAP held on biotin-agarose, 0.6 mL of 12 uM IgG injected, A280.
The target is the same in assay [3]. The experiment in a line: affinity chromatography on DAP held on biotin-agarose, 0.15 mL of 12 uM IgG injected, A280.
Assay [4] has the same target. Nature of the assay: affinity chromatography on DAP held on biotin-agarose, 0.45 mL of 12 uM IgG injected, A280.
Assay [5] shares this target. Nature of the assay: affinity chromatography, 3.2 mg rabbit IgG loaded on immobilised DAP, mean of four cycles.
Assay [6] shares this target. Nature of the assay: affinity chromatography, 3.2 mg rabbit IgG loaded on immobilised DAP, 1. reuse, elution at pH 3.5; A280 (Example 7f).
The target is the same in assay [7]. Nature of the assay: affinity chromatography, 3.2 mg rabbit IgG loaded on immobilised DAP, 2. reuse, elution at pH 3.5; A280 (Example 7f).
Assay [8] has the same target. The experiment in a line: affinity chromatography, 3.2 mg rabbit IgG loaded on immobilised DAP, 3. reuse, elution at pH 3.5; A280 (Example 7f).
Assay [9] shares this target. The experiment in a line: affinity chromatography, 3.2 mg rabbit IgG loaded on immobilised DAP, 4. reuse, elution at pH 3.5; A280 (Example 7f).
Assay [10] shares this target. Nature of the assay: affinity chromatography, free DAP mixed with 3.2 mg rabbit IgG, then biotin-agarose, elution at pH 3.5; A280 (Example 7e).
Assay [11] has the same target. The experiment in a line: affinity chromatography, 2 mg rabbit IgG loaded on DAP held on biotin-agarose; A280 (Example 7b).
Assay [12] has the same target. The experiment in a line: affinity chromatography, DAP and 2 mg rabbit IgG mixed in solution, then biotin-agarose; A280 (Example 7a).
For assay [13] the target is unchanged. The experiment in a line: affinity chromatography, 2 mg rabbit IgG loaded on DAP held on biotin-agarose, elution at pH 2.8; A280 (Example 7b).
The target of assay [14] is IgG from rabbit serum (rabbit). The experiment in a line: affinity chromatography, 115 uL rabbit serum loaded on DAP held on biotin-agarose, elution at pH 2.8; A280 (Example 7d).
Assay [15] has as its target Rabbit IgG fraction, code X0903 (DAKO A/S) (rabbit). Nature of the assay: affinity chromatography, DAP and 2 mg rabbit IgG mixed in solution, then biotin-agarose, elution at pH 2.8; A280 (Example 7a).
Assay [16] deals with IgG from rabbit serum (rabbit). Nature of the assay: affinity chromatography, DAP mixed with 115 uL rabbit serum, then biotin-agarose, elution with glycine buffer; A280 (Example 7c).

Regarding “DAP molecule [Protein A-Avidin] (from UniProt P38507 37-477; P02701 25-152)”, the Peak height eluate in assay [1] came out at 120 mAU; in [2], 126 mAU; in assay [3] it was 109 mAU; in assay [4], 124 mAU. Further, the Peak height of flow through in assay [1] is 61 mAU; in assay [2] it was 154 mAU; in assay [3], 14 mAU; in assay [4], 116 mAU. The same substance displayed an IgG recovered on average in four repeated cycles in assay [5] of 0.35 mg. The IgG Recovered in assay [6] stood at 0.3 mg; in assay [7] it was 0.4 mg; in assay [8] it was 0.4 mg; in assay [9] it was 0.3 mg; in [10], 1.2 mg.

As to “DAP molecule [Protein A-Neutravidin] (from UniProt P38507 37-477; P02701 25-152)”, the results for the Flow through in assay [11] and in [12] were 86% and 74%, respectively. Also, the Recovered stood at 14% in assay [13] and 26% in assay [15]. Also, the figures for the Recovered IgG (mg) from serum in assay [14] and in [16] were 0.18 mg and 0.31 mg, respectively.

For the origin of these results see US20140081001A1.
